Laboratory results reported in patent publication US8188308B2 (Kyowa Hakko Bio Co., Ltd., priority 2006, dated 2012).
“And” between values parts separate entries of the source, which are not always exact repeats. Equal entries are not always repeated.

Conditions: average value for three measurements

| Structure (SMILES) | Angle of repose |
| --- | --- |
| N[C@@H](CCC(=O)N[C@@H](CS)C(=O)NCC(=O)O)C(=O)O [Commercial product A] | 56 degrees |
| N[C@@H](CCC(=O)N[C@@H](CS)C(=O)NCC(=O)O)C(=O)O [Example 1, gamma-L-glutamyl-L-cysteinyl glycine] | 48 degrees |
| N[C@@H](CCC(=O)N[C@@H](CS)C(=O)NCC(=O)O)C(=O)O [Example 2, gamma-L-glutamyl-L-cysteinyl glycine] | 51 degrees and 52 degrees |
